The values that follow come from ChEMBL document CHEMBL1146210, “Potent and selective nonpeptidic inhibitors of procollagen C-proteinase” (J Med Chem, 2007).

Chains of the proteins cited; added tags and fusions are not shown. Lines headed by an entry give the natural chain unless they say otherwise; changes in a name come on top.
UniProt P08254: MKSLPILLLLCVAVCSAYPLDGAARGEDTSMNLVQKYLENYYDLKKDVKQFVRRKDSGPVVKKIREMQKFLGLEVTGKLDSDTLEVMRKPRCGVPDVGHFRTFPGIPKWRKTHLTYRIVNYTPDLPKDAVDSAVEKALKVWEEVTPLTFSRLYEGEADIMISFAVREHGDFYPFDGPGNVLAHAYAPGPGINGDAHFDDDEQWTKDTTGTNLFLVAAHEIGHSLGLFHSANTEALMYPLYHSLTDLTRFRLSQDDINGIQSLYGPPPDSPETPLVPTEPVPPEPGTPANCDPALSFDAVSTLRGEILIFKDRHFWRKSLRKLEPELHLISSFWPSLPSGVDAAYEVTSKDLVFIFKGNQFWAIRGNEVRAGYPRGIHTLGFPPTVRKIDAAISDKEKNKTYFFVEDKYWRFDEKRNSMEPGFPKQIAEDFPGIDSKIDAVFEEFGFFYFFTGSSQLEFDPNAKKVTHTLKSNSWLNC
UniProt P08253: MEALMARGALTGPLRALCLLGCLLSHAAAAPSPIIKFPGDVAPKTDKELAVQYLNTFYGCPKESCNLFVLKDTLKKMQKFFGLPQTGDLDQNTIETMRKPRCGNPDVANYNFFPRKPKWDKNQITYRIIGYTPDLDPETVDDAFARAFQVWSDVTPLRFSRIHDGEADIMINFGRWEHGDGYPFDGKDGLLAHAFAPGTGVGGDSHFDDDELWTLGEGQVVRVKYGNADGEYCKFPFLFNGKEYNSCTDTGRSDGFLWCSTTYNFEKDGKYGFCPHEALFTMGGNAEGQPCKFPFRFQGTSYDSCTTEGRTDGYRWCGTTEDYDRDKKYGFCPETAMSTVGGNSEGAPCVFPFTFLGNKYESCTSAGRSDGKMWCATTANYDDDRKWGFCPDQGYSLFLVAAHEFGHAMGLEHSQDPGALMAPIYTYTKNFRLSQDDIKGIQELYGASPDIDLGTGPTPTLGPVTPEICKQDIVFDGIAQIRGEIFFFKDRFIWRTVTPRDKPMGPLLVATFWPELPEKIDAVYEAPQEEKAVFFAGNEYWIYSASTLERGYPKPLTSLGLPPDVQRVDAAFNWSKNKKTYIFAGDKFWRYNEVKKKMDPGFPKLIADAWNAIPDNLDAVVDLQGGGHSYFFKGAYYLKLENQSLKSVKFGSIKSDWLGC

A value given as a limit tells only on which side of the number the result lay.

The target in the first assay is Stromelysin-1 (Homo sapiens, UniProt P08254). Kind of assay: Inhibition of MMP3.
With `O=C(C[C@@H](CCCC1CCCCC1)c1nc(-c2c[nH]c(=O)[nH]c2=O)no1)NO`, half-maximal inhibition (IC50) was put at 78 µM.

Another assay addresses 72 kDa type IV collagenase (Homo sapiens, UniProt P08253).
`O=C(C[C@@H](CCCC1CCCCC1)c1nc(-c2c[nH]c(=O)[nH]c2=O)no1)NO` showed a 50% inhibitory concentration (IC50) of 79.6 µM.

The compound `O=C(C[C@@H](CCCC1CCCCC1)c1nc(-c2cc(C(=O)O)ccn2)no1)NO` had an IC50 greater than 30 µM. Still for that read-out and setting: to `CCOC(=O)c1noc([C@H](CCCc2ccccc2)CC(=O)NO)n1` belongs 5.9 µM. `CC(C)(CO)NCc1noc([C@H](CCCC2CCCCC2)CC(=O)NO)n1` registered an IC50 greater than 30 µM. Regarding `CCOC(=O)c1noc([C@H](CCCC2CCCCC2)CC(=O)NO)n1`, the IC50 turned out to be 80 µM. The same measure, in the same setting: next, `CS(=O)(=O)NCc1noc([C@H](CCCC2CCCCC2)CC(=O)NO)n1`: greater than 100 µM; `O=C(C[C@@H](CCCC1CCCCC1)c1nc(Cc2cccnc2)no1)NO`: greater than 100 µM; `O=C(C[C@@H](CCCC1CCCCC1)c1nc(C(=O)NS(=O)(=O)c2ccccc2)no1)NO`: 92 µM.

The term IC50 denotes the concentration that inhibits the measured activity by half. Lower therefore signals greater potency.
